For one substance, EC50 results are on record in paper PMC4677984, “Activation of Muscarinic M1 Acetylcholine Receptors Induces Long-Term Potentiation in the Hippocampus” (Cerebral Cortex (New York, NY), 2015).

Chains of the proteins cited; added tags and fusions are not shown. Lines headed by an entry give the natural chain unless they say otherwise; changes in a name come on top.
UniProt P12657: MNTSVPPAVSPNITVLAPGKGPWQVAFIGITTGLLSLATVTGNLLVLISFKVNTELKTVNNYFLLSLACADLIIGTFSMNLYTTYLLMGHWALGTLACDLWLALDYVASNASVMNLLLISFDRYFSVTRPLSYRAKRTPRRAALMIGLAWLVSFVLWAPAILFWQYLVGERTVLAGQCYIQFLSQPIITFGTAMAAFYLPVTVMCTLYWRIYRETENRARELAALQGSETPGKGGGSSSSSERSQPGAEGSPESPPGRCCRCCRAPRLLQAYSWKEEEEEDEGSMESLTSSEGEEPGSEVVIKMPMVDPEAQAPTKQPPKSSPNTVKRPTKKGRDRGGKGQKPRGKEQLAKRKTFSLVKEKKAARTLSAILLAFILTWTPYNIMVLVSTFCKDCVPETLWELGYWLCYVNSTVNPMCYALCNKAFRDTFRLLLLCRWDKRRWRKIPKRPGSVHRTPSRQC

In general, EC50 refers to the concentration at which the effect is half-maximal.

The assay addresses mouse native M1Rs (Mus musculus, UniProt P12657). The following applies: read-out: EC50 for Gαq activation; WT hippocampus membranes. The protocol:
All procedures were performed at 4°C. […] Homogenate was centrifuged at 1000×g for 10 min and supernatant collected, the pellet was rehomogenized and centrifuged again, as above, and supernatant pooled and centrifuged at 11 000×g for 20 min. The resulting pellet was suspended in a final storage buffer (10 mM HEPES, 1 mM EGTA, 1 mM MgCl2, 1 mM DTT; pH 7.4) and centrifuged at 27 000×g for 20 min. Supernatant was removed and the final pellet suspended in 2 mL of final storage buffer. Protein concentration was measured using the Bradford method ([Bradford 1976]) (Coomassie Plus, Bio-Rad protein assay kit) with bovine gamma globulin standards. Samples were then aliquoted and stored at −80°C.
GTPɣ[^35S] binding in mouse WT and M1 KO hippocampal membranes were determined in triplicate using an antibody capture technique in 96-well plate format ([DeLapp et al. 1999]). Membrane aliquots (15 µg/well) from WT or M1 KO C57BL6/NTac mice were incubated with test compound and GTPɣ[^35S] (500 pM/well) for 30 min. […] Plates were left to incubate for 3 h and then centrifuged for 10 min at 2000 rpm. Plates were counted for 1 min/well using a Wallac MicroBeta Trilux scintillation counter (PerkinElmer). […]
For data analysis, relative EC50 and IC50 values were calculated using a 4-parameter logistic curve (GraphPad Prism v6).

With oxotremorine M, the EC50 was found to be 171 nM.
